# Reference: patent US20260384421A1, “NOVEL COMPOUNDS THAT CAN BE USED AS THERAPEUTIC AGENTS” (published 2026)
# Assays:
# HPEKp cells = experiment: proliferation assay with human epidermal keratinocyte progenitors (HPEKp), selectivity versus MDA-MB-231
# MDA-MB-231 cells = experiment: alamarBlue proliferation assay with MDA-MB-231 cells (glucose-free Leibovitz's L-15 medium)
# A-549 cells = experiment: alamarBlue proliferation assay with A-549 cells; settings: read-out: Activity on A-549: IC50, DMEM medium, 10% FBS
# TANQUE cells = experiment: alamarBlue proliferation assay with TANQUE cells; settings: read-out: Activity on TANOUE: IC50, RPMI 1640 medium, 10% FBS
# HEP-G2 cells = experiment: alamarBlue proliferation assay with HEP-G2 cells; settings: read-out: Activity on HEP-G2: IC50, RPMI 1640 medium, 10% FBS
# BHY cells = experiment: alamarBlue proliferation assay with BHY cells; settings: read-out: Activity on BHY: IC50, DMEM medium, 10% FBS
# HCT-116 cells = experiment: alamarBlue proliferation assay with HCT-116 cells; settings: read-out: Activity on HCT-116: IC50, McCoy's 5A medium, 10% FBS
# NB-4 cells = experiment: alamarBlue proliferation assay with NB-4 cells; settings: read-out: Activity on NB-4: IC50, RPMI 1640 medium, 10% FBS
# A-431 cells = experiment: alamarBlue proliferation assay with A-431 cells; settings: read-out: Activity on A-431: IC50, DMEM medium, 10% FBS
# A-375 cells = experiment: alamarBlue proliferation assay with A-375 cells; settings: read-out: Activity on A-375: IC50, DMEM medium, 10% FBS
# CF21.T cells = experiment: alamarBlue proliferation assay with CF21.T cells; settings: read-out: Activity on CF21.T: IC50; CF21.T canine cells, DMEM medium, 10% FBS
# Source text: (§1) These hyperproliferative processes can be benign or malignant and include hyperplasia, neoplasia, cancer and pre-cancerous lesions, and metastases. The antiproliferative activities of compounds falling under general formula (I) were investigated on human primary epidermal keratinocytes (HPEK) and human, murine and canine cell lines derived from hyperproliferative tissue or different cancer types, including MDA-MB-231, ZR-75-30, HCC-1395, HCC-1937, and T-47D all originating from cancer of the breast, JURKAT, RPMI-8402, LOUCY, TANQUE, REC-1, HL-60, NB-4 all originating from different types of blood cancer including lymphoma and leukemia of T-cells, B-cells and myeloid cells, TT originating from cancer of the neuroendocrine system, HeLa originating from cancer of the cervix, 23132/87, SW-948, and HCT-116 all originating from cancer of the gastrointestinal tract including stomach and colon, BHY originating from cancer of the mucosal epithelium, A-431 originating from cancer of the skin, HEP-G2 originating from cancer of the liver, NCI-H460 and A-549 both originating from cancer of the lung, PANC-1 originating from cancer of the pancreas, U-87 MG originating from cancer of the brain, A-375 and RVH-421 both originating from cancer of melanocytes, SW-1353 originating from cancer of bone-derived chondrocytes, C2C12 a mouse cell line originating from hyperproliferative muscle progenitor cells, LL/2 a mouse cell line originating from cancer of the lung, CF21.T a dog cell line originating from cancer of the connective tissue. To this end, according cells were seeded into 96-well plates (CORNING #3598) suitable for fluorescence assays at following initial cell numbers: 1000 cells per well for HPEK; 3000 cells per well for MDA-MB-231, 8000 cells per well for ZR-75-30, 1500 cells per well for HCC-1395, 1500 cells per well for HCC-1937, 3000 cells per well for T-47D, 1500 cells per well for JURKAT, 5000 cells per well for RPMI-8402, 9000 cells per well for LOUCY, 1500 cells per well for TANQUE, 9000 cells per well for REC-1, 1000 cells per well for HL-60, 1000 cells per well for NB-4, 9000 cells per well for TT, 2000 cells per well for HeLa, 2000 cells per well for 23132/87, 9000 cells per well for SW-948, 700 cells per well for HCT-116, 1500 cells per well for BHY, 700 cells per well for A-431, 1500 cells per well for HEP-G2, 500 cells per well for NCI-H460, 1000 cells per well for A-549, 1500 cells per well for PANC-1, 2500 cells per well for U-87 MG, 700 cells per well for A-375, 1500 cells per well for RVH-421, 2000 cells per well for SW-1353, 500 cells per well for C2C12, 500 cells per well for LL/2, and 3000 cells per well for CF21.T. In a volume of 90 μL per well of culture medium the cells were treated with compounds at indicated final concentrations by adding 10 μL per well of 10× compound working solutions from 1:100 pre-diluted 1000× compound DMSO stock-solutions in H2O (Water For Injection, WFI, Fisher Scientific, Gibco™ #A12873) or with the empty carrier DMSO (AppliChem, #A3672) at 0.1% v/v as control yielding a final volume of 100 μL per well. At day 5 after starting the treatments the cells were subjected to the alamarBlue® Proliferation Assay (Bio-Rad Serotec GmbH, BUF012B) according to the protocol of the manufacturer. The readout was taken with a multi-well plate-reader (Tecan Spark®) in the fluorescence mode with applying a filter for excitation at 560 nm (band width 10 nm) and for emission at 590 nm (band width 10 nm). Treatment for maximum proliferation inhibition with the commercial cytotoxic compound (S)-(+)-camptothecin (Fluorochem #M01564) at a concentration of 10 μM was included on each plate for assay quality control. Some of the test compounds of the present invention may have been obtained and applied as their salt forms.
# (§2) The assays were performed in duplicate or more replicates of independent single experiments each containing a three- to six-fold replicate for every condition. […]
# LL/2 cells = experiment: alamarBlue proliferation assay with LL/2 cells; settings: read-out: Activity on LL/2: IC50; LL/2 murine Lewis lung carcinoma cells, DMEM medium, 10% FBS
# U-87 MG cells = experiment: alamarBlue proliferation assay with U-87 MG cells; settings: read-out: Activity on U-87MG: IC50, EMEM medium, 10% FBS
# Source text: as §1, §2
# NCI-H460 cells = experiment: alamarBlue proliferation assay with NCI-H460 cells; settings: read-out: Activity on NCI-H460: IC50, RPMI 1640 medium, 10% FBS
# SW-1353 cells = experiment: alamarBlue proliferation assay with SW-1353 cells (glucose-free L-15 medium); settings: read-out: Activity on SW-1353: IC50, Leibovitz's L-15 medium, 10% FBS, 0% CO2
# C2C12 cells = experiment: alamarBlue proliferation assay with C2C12 cells; settings: read-out: Activity on C2C12: IC50; C2C12 murine myoblast cells, RPMI 1640 medium, 10% FBS
# Source text: as §1, §2
# T-47D cells = experiment: alamarBlue proliferation assay with T-47D cells; settings: read-out: Activity on T-47D (IC50), day 5
# Source text: as §1, §2
# [1] = system: mitochondrial transmembrane potential Δψm in A-549 cells; experiment: mitochondrial activity assay (TMRE staining, mitochondrial transmembrane potential) on A-549 cells; settings: A-549 cells, compounds at 10 μM, 2 h 40 min, TMRE staining, relative to DMSO = 1.0
# JURKAT cells = experiment: alamarBlue proliferation assay with JURKAT cells; settings: read-out: Activity on JURKAT (IC50), day 5
# Source text: as §1, §2
# HL-60 cells = experiment: alamarBlue proliferation assay with HL-60 cells; settings: read-out: Activity on HL-60: IC50, RPMI 1640 medium, 10% FBS
# SW-948 cells = experiment: alamarBlue proliferation assay with SW-948 cells (glucose-free L-15 medium); settings: read-out: Activity on SW-948: IC50, Leibovitz's L-15 medium, 10% FBS, 0% CO2
# RVH-421 cells = experiment: alamarBlue proliferation assay with RVH-421 cells (glucose-free L-15 medium); settings: read-out: Activity on RVH-421: IC50, Leibovitz's L-15 medium, 10% FBS, 0% CO2
# [2] = read-out: Activity (HPEK), HPEK cells (HPEKp), antiproliferative activity, class by IC50
# [3] = read-out: Activity (MDA), MDA-MB-231 cells, antiproliferative activity, class by IC50
# [4] = read-out: Activity on MDA-MB-231 (IC50), glucose-free Leibovitz's L-15, 10% FBS, day 5, alamarBlue
# [5] = read-out: Activity (HPEK): antiproliferative activity on HPEK cells, IC50 category, HPEK cells cultivated in CnT-Prime medium
# [6] = read-out: Activity (MDA): antiproliferative activity on MDA-MB-231 cells, IC50 category, MDA-MB-231 cells cultivated in glucose-free Leibovitz's L-15 medium
SMILES,IC50 (MDA-MB-231 cells; [4]) [nM],IC50 (A-549 cells) [nM],IC50 (TANQUE cells) [nM],IC50 (BHY cells) [nM],IC50 (HCT-116 cells) [nM],IC50 (NB-4 cells) [nM],IC50 (A-431 cells) [nM],IC50 (A-375 cells) [nM],IC50 (LL/2 cells) [nM],IC50 (HPEKp cells; [5]) [µM],IC50 (MDA-MB-231 cells; [6]) [nM],IC50 (U-87 MG cells) [µM],IC50 (NCI-H460 cells) [nM],IC50 (SW-1353 cells) [nM],IC50 (T-47D cells) [µM],other results
COC1CCC(c2ccc(Oc3ccc(C(=O)N4CCN(Cc5ccc(S(F)(F)(F)(F)F)cc5)CC4)nc3)c(CO)c2)CC1 (stereo not drawn),≤ 200,≤ 200,≤ 200,≤ 200,≤ 200,≤ 200,≤ 200,≤ 200,≤ 200,–,–,–,–,–,–,IC50 (HPEKp cells; [2]): < 5 µM; IC50 (MDA-MB-231 cells; [3]): < 1000 nM; IC50 (HEP-G2 cells): ≤ 200 nM; IC50 (CF21.T cells): ≤ 200 nM
COc1ccccc1CN1CCN(C(=O)c2ccc(Oc3ccc(C4CCC5(CC4)OCCO5)cc3CO)cc2)CC1,≤ 1000,≤ 5000,–,–,–,–,–,–,–,< 5,< 1000,≤ 20,≤ 5000,≤ 1000,–,–
COc1ccc(CN2CCCN(C(=O)c3ccc(Oc4ccc(C5CCC6(CC5)OCCO6)cc4CO)cc3)CC2)cc1,≤ 200,≤ 5000,–,–,–,–,–,–,–,> 10,< 1000,≤ 20,–,≤ 200,–,IC50 (C2C12 cells): ≤ 5 µM
COC1CCC(c2ccc(Oc3ccc(C(=O)N4CCN(Cc5ccc(OCC(F)(F)F)cc5)CC4)cc3)c(C=O)c2)CC1 (stereo not drawn),≤ 200,≤ 200,≤ 200,≤ 200,≤ 200,≤ 200,–,≤ 200,≤ 200,–,–,–,–,–,≤ 1,Activity: relative mitochondrial transmembrane potential Δψm [1]: Δψm ≤0.7
O=C(c1ccc(Oc2ccc(C3CCC4(CC3)OCCO4)cc2CO)cc1)N1CC2(CN(Cc3ccccc3)C2)C1,≤ 200,≤ 5000,–,–,–,–,–,–,–,< 10,< 1000,≤ 20,≤ 200,≤ 200,–,IC50 (JURKAT cells): ≤ 5 µM; IC50 (HL-60 cells): ≤ 1000 nM; IC50 (SW-948 cells): ≤ 1000 nM; IC50 (RVH-421 cells): ≤ 200 nM
O=C(c1ccc(Oc2ccc(C3CCC4(CC3)OCCO4)cc2CO)cc1)N1CCN(c2ccc(Cl)cc2)CC1,≤ 1000,≤ 5000,–,–,–,–,–,–,–,< 10,< 1000,≤ 20,≤ 5000,≤ 5000,–,IC50 (JURKAT cells): ≤ 5 µM; IC50 (HL-60 cells): ≤ 5000 nM; IC50 (SW-948 cells): ≤ 5000 nM; IC50 (RVH-421 cells): ≤ 1000 nM
O=C(c1ccc(Oc2ccc(C3CCC4(CC3)SCCCS4)cc2CO)cc1)N1CCN(Cc2ccc(Cl)cc2)CC1,–,≤ 200,≤ 200,≤ 200,≤ 200,≤ 200,≤ 200,≤ 200,≤ 200,–,–,–,–,–,≤ 5,Activity: relative mitochondrial transmembrane potential Δψm [1]: Δψm ≤0.7
CC1(C)COC2(CCC(c3ccc(Oc4ccc(C(=O)N5CCN(Cc6ccc(Cl)cc6)CC5)cc4)c(CO)c3)CC2)OC1,≤ 200,≤ 200,≤ 200,≤ 200,≤ 200,≤ 200,–,–,≤ 1000,–,–,–,–,–,≤ 5,IC50 (HEP-G2 cells): ≤ 200 nM; IC50 (CF21.T cells): ≤ 1000 nM
COc1ccc(CN2CCN(C(=O)c3ccc(Oc4ccc(C5CCC6(CC5)SCCCS6)cc4CO)cc3)CC2)cc1,–,≤ 200,≤ 200,≤ 200,≤ 200,≤ 200,≤ 200,≤ 200,≤ 200,–,–,–,–,–,≤ 5,–
COc1ccc(CN2CCN(C(=O)c3ccc(Oc4ccc(C5CCC6(CC5)SCCS6)cc4CO)cc3)CC2)cc1,≤ 200,≤ 200,≤ 200,≤ 200,≤ 200,≤ 200,≤ 200,≤ 200,≤ 1000,–,–,–,–,–,–,IC50 (HPEKp cells; [2]): < 5 µM; IC50 (MDA-MB-231 cells; [3]): < 1000 nM; IC50 (CF21.T cells): ≤ 5000 nM
COc1ccc(CN2CCN(C(=O)c3ccc(Oc4ccc(C5CCC6(CC5)OCCO6)cc4CO)cc3)CC2)cc1,≤ 200,≤ 200,≤ 200,≤ 200,≤ 200,≤ 200,≤ 200,–,≤ 200,< 10,< 1000,≤ 20,≤ 200,≤ 200,–,IC50 (HL-60 cells): ≤ 200 nM; IC50 (HEP-G2 cells): ≤ 200 nM; IC50 (SW-948 cells): ≤ 200 nM; IC50 (RVH-421 cells): ≤ 200 nM

# Read-outs that look alike come from different tables or passages of the source.
